Two molecules from US20150183802A1, “TRICYCLIC SULFONAMIDE DERIVATIVES” (NOVARTIS AG, priority 2013, published 2015) can be followed below.

By UniProt entry, the sequences of proteins in these tests, tags left out.
UniProt Q15858, whole entry: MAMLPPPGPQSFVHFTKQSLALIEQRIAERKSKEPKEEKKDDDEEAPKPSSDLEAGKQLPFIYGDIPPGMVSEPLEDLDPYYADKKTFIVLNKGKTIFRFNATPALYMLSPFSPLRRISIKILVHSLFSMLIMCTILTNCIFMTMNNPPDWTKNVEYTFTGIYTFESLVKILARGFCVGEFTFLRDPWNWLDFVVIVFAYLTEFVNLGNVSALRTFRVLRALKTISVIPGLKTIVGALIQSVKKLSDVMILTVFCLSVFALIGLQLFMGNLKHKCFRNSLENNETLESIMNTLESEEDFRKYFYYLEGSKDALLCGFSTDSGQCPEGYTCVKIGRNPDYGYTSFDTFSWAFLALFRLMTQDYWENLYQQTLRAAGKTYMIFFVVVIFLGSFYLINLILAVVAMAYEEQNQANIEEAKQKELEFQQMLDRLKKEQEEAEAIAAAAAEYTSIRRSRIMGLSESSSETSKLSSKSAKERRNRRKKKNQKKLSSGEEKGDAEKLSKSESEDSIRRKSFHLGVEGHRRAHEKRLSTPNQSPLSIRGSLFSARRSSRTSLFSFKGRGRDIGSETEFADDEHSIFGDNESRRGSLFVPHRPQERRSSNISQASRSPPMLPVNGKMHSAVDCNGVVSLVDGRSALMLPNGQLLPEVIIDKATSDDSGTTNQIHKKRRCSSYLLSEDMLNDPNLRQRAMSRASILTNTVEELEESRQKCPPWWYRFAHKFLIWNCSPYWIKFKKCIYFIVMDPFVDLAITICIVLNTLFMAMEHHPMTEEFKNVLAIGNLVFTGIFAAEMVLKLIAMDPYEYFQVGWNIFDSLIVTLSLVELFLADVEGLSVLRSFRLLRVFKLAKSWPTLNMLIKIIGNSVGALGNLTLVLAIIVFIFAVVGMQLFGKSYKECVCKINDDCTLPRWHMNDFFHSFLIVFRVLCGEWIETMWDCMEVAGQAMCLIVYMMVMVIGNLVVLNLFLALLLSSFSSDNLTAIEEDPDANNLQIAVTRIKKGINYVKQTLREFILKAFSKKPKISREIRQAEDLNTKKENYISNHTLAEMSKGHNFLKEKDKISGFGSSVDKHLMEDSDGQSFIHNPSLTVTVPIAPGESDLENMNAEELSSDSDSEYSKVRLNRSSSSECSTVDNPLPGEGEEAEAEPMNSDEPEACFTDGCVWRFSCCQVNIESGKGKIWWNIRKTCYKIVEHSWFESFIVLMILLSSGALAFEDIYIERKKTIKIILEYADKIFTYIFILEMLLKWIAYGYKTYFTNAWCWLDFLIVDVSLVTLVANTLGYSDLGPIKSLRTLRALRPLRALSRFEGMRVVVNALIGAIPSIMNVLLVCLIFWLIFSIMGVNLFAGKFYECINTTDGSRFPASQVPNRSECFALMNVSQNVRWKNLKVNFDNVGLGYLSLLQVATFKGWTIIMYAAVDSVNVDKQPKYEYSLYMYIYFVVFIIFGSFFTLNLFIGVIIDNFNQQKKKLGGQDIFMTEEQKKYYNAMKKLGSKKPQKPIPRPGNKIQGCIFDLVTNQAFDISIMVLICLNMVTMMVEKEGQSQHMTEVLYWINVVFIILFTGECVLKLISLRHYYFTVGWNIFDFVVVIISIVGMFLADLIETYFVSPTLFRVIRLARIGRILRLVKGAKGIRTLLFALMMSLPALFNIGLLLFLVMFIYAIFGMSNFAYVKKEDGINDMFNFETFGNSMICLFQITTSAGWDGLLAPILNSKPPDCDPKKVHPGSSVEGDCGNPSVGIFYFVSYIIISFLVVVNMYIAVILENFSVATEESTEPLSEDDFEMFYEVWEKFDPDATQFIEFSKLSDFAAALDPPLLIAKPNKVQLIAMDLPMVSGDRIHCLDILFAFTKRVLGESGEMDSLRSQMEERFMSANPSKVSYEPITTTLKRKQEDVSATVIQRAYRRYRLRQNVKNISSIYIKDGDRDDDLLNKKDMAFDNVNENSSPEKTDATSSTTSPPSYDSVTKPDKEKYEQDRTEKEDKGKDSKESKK

In the assay the target is hNav1.7 channels (Homo sapiens, UniProt Q15858). Nature of the assay: hNav1.7 channel in vitro patch-clamp assay. The note with it: stable HEK293 cell line expressing hNav1.7; whole cell patch-clamp (QPatch HTX and/or conventional), room temperature; voltage protocol not given. How it is done:
hNav1.7 Channel In Vitro Patch-Clamp Assay
Cells: Sable HEK293 (human embryonic kidney) cell line expressing hNav1.7 channels was used in the assay. The cell line was obtained from Millipore (Millipore Corporation, MA).
Patch-clamp recordings: The recordings were performed on QPatch HTX (Sophion Bioscience, Denmark) and/or conventional patch-clamp (Axon Multiclamp 700B systems, Molecular Devices, CA) platforms at room temperature, using whole cell patch-clamp techniques. The composition of extracellular solution was (in mM): HEPES 5, NaCl 40, KCl 3, CaCl2 1, MgCl2 1, Choline Chloride 100. Adjust pH to 7.2 with 1N NaOH, osmolarity to 300-310 mOsm with sucrose. The composition of intracellular solution was (in mM): HEPES 10, NaCl 10, Na2ATP 1, MgCl2 2, KF 135, EGTA 10. Adjust pH to 7.2 with 1N NaOH, osmolarity to 290-300 mOsm with sucrose.
For conventional patch-clamp, 35 mm culture dishes containing hNav1.7 cells were placed on the stage of an inverted microscope and continuously perfused with extracellular solution from a perfusion system (Biologic Rapid solution changer, RSC-160, ˜1 ml/min). […] The recordings were controlled by pCLAMP10 software. […] Compound effect (% inhibition) was determined by difference in current amplitude before and after the application of test compounds. IC50 values were determined from concentration-response curves that were obtained with Hill fitting. […]
A general note: The patch-clamp technique gives a direct electrical read-out from membranes.

Structures are written as SMILES. pIC50: −log10 of the molar value.

By pIC50 is commonly meant the negative decadic logarithm of the IC50, by convention in mol/L. High values mean a low IC50, low ones a high IC50. With `CC(C)COc1ncc(-n2cc(C(F)(F)F)c3cc4c(NS(C)(=O)=O)noc4cc32)cc1Cl`, the negative logarithm of the IC50 (pIC50) was 7.52.

`CC(C)COc1ncc(-c2ncnc3cc4c(NS(=O)(=O)C5CC5)noc4cc23)cc1Cl` gave a pIC50 of 5.74.
